From patent US9539257B2, “Method of treating cancer” (NOVARTIS AG, priority 2009, dated 2017)

Experiments:
[1] = On-treatment liver chemistry (ALT, TBL, ALP), exploratory study PGx population, twelve AMBC trials; conditions: Exploratory Study PGx Population (N=901)
[2] = On-treatment liver chemistry (ALT, TBL, ALP), confirmatory study PGx population, lapatinib plus letrozole phase III trial; type: in vivo, human; conditions: Confirmatory Study PGx Population (N=374)

CS(=O)(=O)CCNCc1ccc(-c2ccc3ncnc(Nc4ccc(OCc5cccc(F)c5)c(Cl)c4)c3c2)o1 [lapatinib, N-(3 chloro-4-{[(3-fluorophenyl)methyl]oxy}phenyl)-6-[5-({[2 (methylsulfonyl)ethyl]amino}methyl)-2-furanyl]-4-quinazolinamine bis(4 methylbenzenesulfonate)monohydrate]
Maximum on treatment TBL xULN: Mean(SD) [1]: 0.88 (1.08) xULN | Maximum on treatment ALP xULN: Mean(SD) [2]: 1.57 (1.55) xULN | Maximum on treatment ALP xULN: Median [2]: 1.08 xULN
